Laboratory results reported in patent US8410310B2, “Trypsin-like serine protease inhibitors, and their preparation and use” (The Medicines Company (Leipzig) GmbH, priority 2006, dated 2013).
pKi: −log10 of the molar value.

The chains behind the UniProt entries cited, without tags or fusion partners. Residues count along the entry.
UniProt P00742, 41-179 limits assumed: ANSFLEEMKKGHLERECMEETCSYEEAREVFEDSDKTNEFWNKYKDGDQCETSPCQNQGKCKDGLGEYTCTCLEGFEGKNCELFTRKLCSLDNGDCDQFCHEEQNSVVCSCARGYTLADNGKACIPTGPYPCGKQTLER
UniProt P00742, 235-488 limits assumed: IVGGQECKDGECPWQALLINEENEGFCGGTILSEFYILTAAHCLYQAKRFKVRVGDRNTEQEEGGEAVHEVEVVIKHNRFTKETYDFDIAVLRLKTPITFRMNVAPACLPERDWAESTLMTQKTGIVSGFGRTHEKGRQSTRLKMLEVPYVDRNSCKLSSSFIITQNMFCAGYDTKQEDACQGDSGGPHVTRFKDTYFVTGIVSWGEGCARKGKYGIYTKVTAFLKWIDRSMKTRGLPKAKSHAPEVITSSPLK
UniProt P00747, 581-810 limits assumed: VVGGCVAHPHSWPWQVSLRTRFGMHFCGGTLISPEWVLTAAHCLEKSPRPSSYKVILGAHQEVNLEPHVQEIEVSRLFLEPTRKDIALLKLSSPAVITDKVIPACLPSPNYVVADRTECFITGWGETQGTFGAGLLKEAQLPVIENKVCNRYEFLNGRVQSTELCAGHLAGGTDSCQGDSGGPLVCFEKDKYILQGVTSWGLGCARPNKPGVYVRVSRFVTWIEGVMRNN
UniProt P00747, 97-580 partner limits assumed: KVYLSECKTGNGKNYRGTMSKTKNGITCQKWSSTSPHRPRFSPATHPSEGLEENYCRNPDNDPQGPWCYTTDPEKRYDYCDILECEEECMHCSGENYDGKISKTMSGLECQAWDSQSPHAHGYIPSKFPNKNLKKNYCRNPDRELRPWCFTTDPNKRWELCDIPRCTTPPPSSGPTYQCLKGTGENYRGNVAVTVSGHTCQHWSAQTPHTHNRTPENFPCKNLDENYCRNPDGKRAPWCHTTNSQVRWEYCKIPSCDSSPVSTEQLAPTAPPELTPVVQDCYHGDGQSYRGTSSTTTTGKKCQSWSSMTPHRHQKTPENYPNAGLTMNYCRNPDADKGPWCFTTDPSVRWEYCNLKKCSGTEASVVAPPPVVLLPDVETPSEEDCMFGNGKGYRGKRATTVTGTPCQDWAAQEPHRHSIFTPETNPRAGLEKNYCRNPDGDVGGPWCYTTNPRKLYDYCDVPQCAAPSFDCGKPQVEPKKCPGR
UniProt P03952, 391-638 limits assumed: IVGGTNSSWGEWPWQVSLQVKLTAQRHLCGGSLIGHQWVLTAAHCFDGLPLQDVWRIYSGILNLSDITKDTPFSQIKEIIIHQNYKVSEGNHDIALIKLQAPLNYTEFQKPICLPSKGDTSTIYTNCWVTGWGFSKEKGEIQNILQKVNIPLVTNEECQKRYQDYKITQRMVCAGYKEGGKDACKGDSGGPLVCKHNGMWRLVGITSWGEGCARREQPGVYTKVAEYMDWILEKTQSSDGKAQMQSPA
UniProt P03952, 20-390 partner limits assumed: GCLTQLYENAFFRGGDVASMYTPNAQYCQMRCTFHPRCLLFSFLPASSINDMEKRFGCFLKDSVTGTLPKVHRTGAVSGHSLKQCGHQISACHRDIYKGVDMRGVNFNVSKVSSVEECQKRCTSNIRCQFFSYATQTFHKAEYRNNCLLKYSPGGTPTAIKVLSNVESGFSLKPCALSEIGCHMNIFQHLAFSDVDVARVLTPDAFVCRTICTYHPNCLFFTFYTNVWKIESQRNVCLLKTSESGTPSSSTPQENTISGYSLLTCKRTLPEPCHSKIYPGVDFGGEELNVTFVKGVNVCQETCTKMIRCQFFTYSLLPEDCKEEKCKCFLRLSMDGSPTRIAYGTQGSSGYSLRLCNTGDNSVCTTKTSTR

Legend:
Xa = Xa (Homo sapiens, UniProt P00742); assay: Determination of inhibition constants for Xa; conditions: read-out: Xa [Ki]
plasmin = plasmin (Homo sapiens, UniProt P00747); assay: Determination of inhibition constants for plasmin; conditions: read-out: Plasmin [Ki]; 25° C., substrate Chromozym PL, pH 8.0
Thrombin = Thrombin (Homo sapiens, UniProt P00734); assay: Determination of inhibition constants for thrombin; conditions: read-out: Thrombin [Ki]
plasma kallikrein = plasma kallikrein (Homo sapiens, UniProt P03952); assay: Determination of inhibition constants for PK; conditions: read-out: PK [Ki]; 25° C., substrate S2302, pH 8.0

Row | pKi (Xa) | pKi (plasmin) | pKi (Thrombin) | pKi (plasma kallikrein) | SMILES
1 | > 7.00 | > 8.00 | > 6.00 | > 8.00 | N=C(N)c1ccc(CNC(=O)[C@H](Cc2cccc(CN)c2)NC(=O)[C@@H](CCCc2ccccc2)NS(=O)(=O)Cc2ccccc2)cc1
2 | > 7.00 | > 8.00 | < 6.00 | > 8.00 | N=C(N)c1ccc(CNC(=O)[C@H](Cc2cccc(CN)c2)NC(=O)[C@@H](CCCc2ccccc2)NS(=O)(=O)Cc2cccc(C(=O)O)c2)c(F)c1
3 | > 6.00 | > 7.00 | > 6.00 | > 7.00 | CC(C)(C)OC[C@@H](NS(=O)(=O)Cc1ccccc1)C(=O)N[C@@H](Cc1ccc(C(=N)N)cc1)C(=O)NCc1ccc(C(=N)N)cc1
